Like-named read-outs stand apart in the source and are kept apart here.
Key:
HCC1395 = experiment: CTG assay for proliferation inhibition of cell lines; conditions: read-out: IC50 (μM) (HCC1395); HCC1395, 7 days, CellTiter Glo
HCC1428 = experiment: as above; conditions: read-out: IC50 (μM) (HCC1428); HCC1428, 7 days, CellTiter Glo
NCI-H460 = experiment: as above; conditions: read-out: IC50 (μM) (NCI-H460); NCI-H460, 7 days, CellTiter Glo
PARG (389-976) = PARG (389-976) (Homo sapiens (Human), UniProt Q86W56); experiment: PARG enzyme inhibition assay (TR-FRET); conditions: read-out: IC50 (PARG enzyme)
[1] = class symbol, Bio PARylated His-TEV-PARP1 substrate, TR-FRET

Protein sequences, listed by entry. Tags and fused reporters are not part of them. Residues count along the entry.
UniProt Q86W56, 389-976 limits assumed: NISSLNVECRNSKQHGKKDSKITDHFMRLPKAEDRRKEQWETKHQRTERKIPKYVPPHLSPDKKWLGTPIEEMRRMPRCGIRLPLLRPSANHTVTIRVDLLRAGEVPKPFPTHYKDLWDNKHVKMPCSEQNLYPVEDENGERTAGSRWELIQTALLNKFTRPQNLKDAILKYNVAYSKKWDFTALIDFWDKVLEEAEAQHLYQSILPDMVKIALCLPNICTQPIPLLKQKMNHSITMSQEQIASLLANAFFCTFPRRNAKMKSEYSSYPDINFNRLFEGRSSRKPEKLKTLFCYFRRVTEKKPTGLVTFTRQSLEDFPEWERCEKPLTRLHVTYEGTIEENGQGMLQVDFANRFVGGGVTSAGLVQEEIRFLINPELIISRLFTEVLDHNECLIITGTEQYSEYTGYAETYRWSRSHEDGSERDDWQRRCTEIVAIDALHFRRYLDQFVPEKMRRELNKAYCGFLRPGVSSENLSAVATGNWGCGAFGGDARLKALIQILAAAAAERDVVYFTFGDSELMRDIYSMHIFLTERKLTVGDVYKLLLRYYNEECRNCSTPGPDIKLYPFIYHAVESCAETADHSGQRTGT

Row | Structure (SMILES) | IC50 (HCC1395) | IC50 (HCC1428) | IC50 (NCI-H460) | IC50 (PARG (389-976); [1]) | IC50 (PARG (389-976); numeric value in parentheses under the class symbol)
1 | CN1CC(S(=O)(=O)N2CC=C(c3cc(S(=O)(=O)NC4(C#N)CC4)cc4c(-c5nnc(C(F)F)s5)nn(C)c34)CC2)C1 | 1.46 µM | 2.09 µM | 0.891 µM | – | –
2 | CC(C)S(=O)(=O)N1CC=C(c2cc(S(=O)(=O)NC3(C#N)CC3)cc3c2ncn3-c2nnc(C(F)(F)F)s2)CC1 | – | – | – | 1 to 10 nM | –
3 | [2H]C([2H])([2H])n1nc(-c2nnc(C(F)F)s2)c2cc(S(=O)(=O)NC3(C#N)CC3)cc(C3=CCN(S(=O)(=O)C(C)C)CC3)c21 | 0.0621 µM | – | – | – | –
4 | CC(C)S(=O)(=O)N1CC=C(c2cc(S(=O)(=O)NC3(C#N)CC3)cc3c2cnn3-c2nnc(C(F)F)s2)CC1 | 0.306 µM | 0.538 µM | 0.312 µM | 1 to 10 nM | 1.18 nM
5 | COCC1=C(c2cc(S(=O)(=O)NC3(C#N)CC3)cc3c(-c4nnc(C(F)(F)F)s4)nn(C)c23)CCN(S(=O)(=O)C(C)C)C1 | 0.0587 µM | 0.126 µM | – | – | –
6 | CC(C)S(=O)(=O)N1CC=C(c2cc(S(=O)(=O)NC3(C#N)CC3)cc3c(-c4nc(C(F)(F)F)no4)nn(C)c23)CC1 | 0.196 µM | 0.0833 µM | – | < 1 nM | –
7 | CC(C)S(=O)(=O)N1CC=C(c2cc(S(=O)(=O)NC3(C#N)CC3)cc3c(-c4nnc(C(F)F)s4)nn(CC4CC4)c23)CC1 | 0.162 µM | 0.144 µM | 0.134 µM | – | –
8 | CC(C)S(=O)(=O)N1CCC(c2cc(S(=O)(=O)NC3(C#N)CC3)cc3c(-c4nnc(C(F)(F)F)s4)nn(C)c23)=C(F)C1 | 0.156 µM | 0.185 µM | 0.131 µM | – | –
9 | CC(C)S(=O)(=O)N1CC=C(c2cc(S(=O)(=O)NC3(C#N)CC3)cc3c(-c4nnc(C(F)F)s4)cn(C)c23)CC1 | – | – | – | 1 to 10 nM | –
10 | CC(C)S(=O)(=O)N1CC=C(c2cc(S(=O)(=O)NC3(C#N)CC3)nc3c(-c4nnc(C(F)(F)F)s4)nn(C)c23)CC1 | – | – | – | 100 to 1000 nM | –

— US20250042891A1
